Data on two compounds can be found in ChEMBL document CHEMBL4837240 (J Med Chem, 2021).

For test [1], the species on record is Homo sapiens. Briefly: Selectivity ratio of IC50 for human VEGFR1 to IC50 for human VEGFR3.
The species named for test [2] is Homo sapiens. Kind of test: Selectivity ratio of IC50 for human VEGFR2 to IC50 for human VEGFR3.

The structures appear in SMILES notation. Some results are limits rather than exact numbers.

As for `CN1CCN(c2ccc(-c3cc4c(N5CCN(C(=O)Nc6ccc(Cl)c(C(F)(F)F)c6)CC5)ncnc4s3)cc2)CC1`, the Ratio IC50 in test [1] and in test [2] was above 100 each time.

As to `CCn1c(N)c(C(=O)NC)c(=O)c2ccc(C#C[C@@](C)(O)COC)nc21`, the Ratio IC50 is 130 in test [1] and 10 in test [2].
